Assay results as given in ChEMBL document CHEMBL1125181, “Naphthosultam derivatives: a new class of potent and selective 5-HT2 antagonists” (J Med Chem, 1991).

Chains of the proteins cited; added tags and fusions are not shown. Lines headed by an entry give the natural chain unless they say otherwise; changes in a name come on top.
UniProt P30994: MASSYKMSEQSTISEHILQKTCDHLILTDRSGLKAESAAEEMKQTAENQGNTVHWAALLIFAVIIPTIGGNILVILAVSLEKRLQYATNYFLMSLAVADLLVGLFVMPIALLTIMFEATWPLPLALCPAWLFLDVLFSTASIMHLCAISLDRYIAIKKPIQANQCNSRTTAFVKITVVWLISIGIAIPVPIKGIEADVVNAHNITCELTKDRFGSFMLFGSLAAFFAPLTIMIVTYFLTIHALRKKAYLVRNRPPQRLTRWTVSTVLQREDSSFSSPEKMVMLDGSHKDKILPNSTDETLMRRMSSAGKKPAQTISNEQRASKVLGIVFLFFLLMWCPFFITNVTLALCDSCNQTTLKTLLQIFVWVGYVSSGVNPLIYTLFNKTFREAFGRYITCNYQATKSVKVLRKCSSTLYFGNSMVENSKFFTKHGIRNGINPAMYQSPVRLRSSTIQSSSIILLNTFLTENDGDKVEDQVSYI
UniProt P08909: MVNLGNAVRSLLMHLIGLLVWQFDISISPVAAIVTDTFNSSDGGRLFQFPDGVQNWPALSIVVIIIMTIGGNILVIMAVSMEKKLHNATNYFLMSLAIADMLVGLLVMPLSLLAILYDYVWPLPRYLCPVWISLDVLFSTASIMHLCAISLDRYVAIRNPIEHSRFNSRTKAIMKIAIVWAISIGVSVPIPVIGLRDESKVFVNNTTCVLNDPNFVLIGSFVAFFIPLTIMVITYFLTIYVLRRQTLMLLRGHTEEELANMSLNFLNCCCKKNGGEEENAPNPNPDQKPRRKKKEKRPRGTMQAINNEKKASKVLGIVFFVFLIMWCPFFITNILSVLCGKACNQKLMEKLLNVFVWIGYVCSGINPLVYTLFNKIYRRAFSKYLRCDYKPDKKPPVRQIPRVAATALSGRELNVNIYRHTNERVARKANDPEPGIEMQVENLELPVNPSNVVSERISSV
UniProt P14842: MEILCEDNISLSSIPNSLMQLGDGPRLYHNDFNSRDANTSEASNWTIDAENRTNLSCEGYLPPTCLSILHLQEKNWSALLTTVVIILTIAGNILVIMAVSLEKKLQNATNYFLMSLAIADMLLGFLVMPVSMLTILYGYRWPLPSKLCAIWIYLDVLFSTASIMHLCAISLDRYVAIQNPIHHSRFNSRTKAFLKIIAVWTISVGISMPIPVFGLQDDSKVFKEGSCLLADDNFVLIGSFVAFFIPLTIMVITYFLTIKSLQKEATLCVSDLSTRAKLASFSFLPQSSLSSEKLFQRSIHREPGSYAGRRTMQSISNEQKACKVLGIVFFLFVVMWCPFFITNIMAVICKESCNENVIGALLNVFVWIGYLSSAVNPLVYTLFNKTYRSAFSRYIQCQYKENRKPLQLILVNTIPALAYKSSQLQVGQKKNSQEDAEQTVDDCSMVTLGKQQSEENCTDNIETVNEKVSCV

Assays:
[1] = target: T1, Serotonin 2 (5-HT2) receptor (Rattus norvegicus, UniProt P30994+P08909+P14842); experiment: The concentration required to inhibit [3H]ketanserin binding to 5-hydroxytryptamine 2 receptor in rat brain membranes (in vitro); type: cell membranes
Procedure, shortened: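 Male Sprague-Dawley rat cortical membranes (0.15 mg/mL protein) in Tris-HCl pH 7.6 with BSA 2 mg/mL. Incubated 15 min at 37 °C with compound and [3H]ketanserin (final 0.4 nM). Nonspecific binding from 10⁻⁶ M methysergide. Filtration and scintillation counting. IC50 by nonlinear regression; mean of at least 2 runs, 6 concentrations in triplicate.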

[2] = target: T1, Serotonin 2 (5-HT2) receptor; experiment: Binding constant against 5-hydroxytryptamine 2 receptor (in vitro); type: protein assay

- IC50 [1]: 1.7 nM
- Ki [2]: 0.69 nM
SMILES: Cc1nc2sccn2c(=O)c1CCN1CCC(=C(c2ccc(F)cc2)c2ccc(F)cc2)CC1 [RITANSERIN]
